The list shows a part of the results, in another mix than the full data. Calls of active or inactive are those of the source. No stated cut-off is given here; in the data, active means growth rescue above about 28% (passing the limit was not always enough); inconclusive means no clear call, values can overlap the other calls.
Assay: rescue of yeast from PfHsp40 toxicity, primary screen, S. cerevisiae, ATP luminescence (AID 504582);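 further: yeast W303a lacking pdr1 and pdr3 grown in galactose medium; growth measured after three days at 30 °C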
Conditions: S. cerevisiae expressing PfHsp40, growth rescue, at 12.5 µM, active compounds read high

SMILES | growth rescue
CCC(=O)N(c1ccccc1)C1(COC)CCN(CCc2cccs2)CC1 | inactive: -0.336%
CCC(=O)N(c1ccccc1)C1(COC)CCN(CCn2nnn(CC)c2=O)CC1 | inactive: 0.728%

Reference: PubChem BioAssay AID504582 (Broad Institute, 2011)
